Experimental findings from ChEMBL document CHEMBL4414592, “Aryl-fluorosulfate-based Lysine Covalent Pan-Inhibitors of Apoptosis Protein (IAP) Antagonists with Cellular Efficacy” (J Med Chem, 2019) are described below.

By UniProt entry, the sequences of proteins in these tests, tags left out.
UniProt Q13490, whole entry: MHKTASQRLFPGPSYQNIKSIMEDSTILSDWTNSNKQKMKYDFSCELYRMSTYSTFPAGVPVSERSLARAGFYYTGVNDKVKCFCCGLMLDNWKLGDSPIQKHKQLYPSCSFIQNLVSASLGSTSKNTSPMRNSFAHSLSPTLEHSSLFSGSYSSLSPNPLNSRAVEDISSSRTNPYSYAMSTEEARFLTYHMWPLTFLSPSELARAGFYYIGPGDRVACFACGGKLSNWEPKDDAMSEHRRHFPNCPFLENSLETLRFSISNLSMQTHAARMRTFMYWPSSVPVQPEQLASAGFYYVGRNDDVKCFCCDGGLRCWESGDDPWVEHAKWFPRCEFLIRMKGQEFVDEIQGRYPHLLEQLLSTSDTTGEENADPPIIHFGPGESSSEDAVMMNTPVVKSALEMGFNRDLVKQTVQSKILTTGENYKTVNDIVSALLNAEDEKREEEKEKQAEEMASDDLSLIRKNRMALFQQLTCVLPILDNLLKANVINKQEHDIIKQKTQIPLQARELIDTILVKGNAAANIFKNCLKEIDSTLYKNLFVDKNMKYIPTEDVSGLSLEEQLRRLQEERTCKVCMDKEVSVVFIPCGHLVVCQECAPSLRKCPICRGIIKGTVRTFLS

The target in assay [1] is T1, Baculoviral IAP repeat-containing protein 2 (Homo sapiens, UniProt Q13490). As to the kind of experiment: Inhibition of N-terminal 6x-His-tagged recombinant human cIAP1-BIR3 (258 to 363 residues) expressed in Escherichia coli incubated for 2 hrs after 6 hrs pre-incubation with enzyme by biotinylated AVPI peptide based DELFIA.
Assay [2] addresses T1, Baculoviral IAP repeat-containing protein 2. Kind of assay: Inhibition of N-terminal 6x-His-tagged recombinant human cIAP1-BIR3 (258 to 363 residues) expressed in Escherichia coli incubated for 2 hrs without 6 hrs pre-incubation with enzyme by biotinylated AVPI peptide based DELFIA.

Regarding `CN[C@@H](C)C(=O)N[C@@H](Cc1ccc(OS(=O)(=O)F)cc1)C(=O)N1CCC[C@H]1C(=O)N[C@@H]1CCc2c(F)cccc21`, the IC50 amounted to 20 nM in assay [1] and 24 nM in assay [2].

As for `CN[C@@H](C)C(=O)N[C@H](C(=O)N1CCC[C@H]1C(=O)N[C@@H]1CCc2c(OS(=O)(=O)F)cccc21)C1CCCCC1`, in assay [2], the IC50 was 25 nM.

Regarding `CN[C@@H](C)C(=O)NC(Cc1cc(C)c(C(F)(F)F)cc1F)C(=O)N1CCC[C@H]1C(=O)N[C@@H]1CCc2c(OS(=O)(=O)F)cccc21` (mixture of isomers), the IC50 came to 15 nM in assay [1] and 50 nM in assay [2].
